Test results: publication PMC9628480, “Discovery and structural characterization of chicoric acid as a SARS-CoV-2 nucleocapsid protein ligand and RNA binding disruptor” (Scientific Reports, 2022)

Assays:
N protein-RNA1 complex = target: T1, N protein-RNA1 complex (Severe acute respiratory syndrome coronavirus 2, UniProt P0DTC9); assay type: binding, SARS-CoV-2
T1 construct: made in house; host or cells: Escherichia coli BL21 (DE3)

[1] = target: T2, SARS-CoV-2 N protein (full-length) (Severe acute respiratory syndrome coronavirus 2, UniProt P0DTC9); assay: DLS aggregation assay of N protein; conditions: compound 20 µM, two-fold molar excess
T2 construct: made in house; host or cells: Escherichia coli BL21 (DE3)

In the case of O=C(O)C[C@@H]1C(=O)O[C@H]2[C@H](OC(=O)c3cc(O)c(O)c(O)c3)[C@@H](OC(=O)c3cc(O)c(O)c4c3[C@H]1[C@H](O)C(=O)O4)[C@H](OC(=O)c1cc(O)c(O)c(O)c1)O[C@@H]2COC(=O)c1cc(O)c(O)c(O)c1 [Chebulinic acid], the “binding affinity of the N protein to RNA1 in the presence of compound” value (N protein-RNA1 complex) is reported as “significantly reduced” and the “effect on hydrodynamic radius (Rh) / oligomeric state of the N protein (DLS)” value [1] is reported as “did not significantly change”.
